Test results published in article PMC9861714, “Biological Evaluation of Valeriana Extracts from Argentina with Potent Cholinesterase Inhibition for the Treatment of Neurodegenerative Disorders and Their Comorbidities—The Case of Valeriana carnosa Sm. (Caprifoliaceae) Studied in Mice” (Pharmaceuticals, 2023).

Sequences of proteins named here, by UniProt entry; tags and fusion partners are left off.
UniProt P21397, whole entry: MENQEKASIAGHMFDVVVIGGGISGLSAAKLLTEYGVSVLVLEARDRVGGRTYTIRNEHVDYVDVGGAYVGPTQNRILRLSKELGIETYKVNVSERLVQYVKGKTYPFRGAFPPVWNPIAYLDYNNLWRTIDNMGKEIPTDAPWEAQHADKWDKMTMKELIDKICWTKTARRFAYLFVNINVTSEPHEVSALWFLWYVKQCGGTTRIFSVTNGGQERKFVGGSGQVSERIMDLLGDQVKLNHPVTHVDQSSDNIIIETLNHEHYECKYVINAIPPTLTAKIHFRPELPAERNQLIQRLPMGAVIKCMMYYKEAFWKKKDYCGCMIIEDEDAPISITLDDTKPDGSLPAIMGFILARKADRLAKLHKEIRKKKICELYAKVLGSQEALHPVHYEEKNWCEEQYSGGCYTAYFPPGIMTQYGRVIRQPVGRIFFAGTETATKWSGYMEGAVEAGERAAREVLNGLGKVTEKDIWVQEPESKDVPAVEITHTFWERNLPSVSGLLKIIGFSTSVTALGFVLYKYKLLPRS

Biological target: T1, hMAO-A (Homo sapiens, UniProt P21397)
T1 construct: gene MAOA

C#CCN(C)Cc1ccccc1 [Pargyline]
IC50: 3.97 ± 0.275 µM
